{"source": "paper PMC10491595", "about": "“Activation of the integrated stress response by inhibitors of its kinases” (Nature Communications, 2023)", "molecular_target": "T1, GCN2 (Homo sapiens, UniProt Q9P2K8)", "T1 sequence (Q9P2K8 192-1024)": "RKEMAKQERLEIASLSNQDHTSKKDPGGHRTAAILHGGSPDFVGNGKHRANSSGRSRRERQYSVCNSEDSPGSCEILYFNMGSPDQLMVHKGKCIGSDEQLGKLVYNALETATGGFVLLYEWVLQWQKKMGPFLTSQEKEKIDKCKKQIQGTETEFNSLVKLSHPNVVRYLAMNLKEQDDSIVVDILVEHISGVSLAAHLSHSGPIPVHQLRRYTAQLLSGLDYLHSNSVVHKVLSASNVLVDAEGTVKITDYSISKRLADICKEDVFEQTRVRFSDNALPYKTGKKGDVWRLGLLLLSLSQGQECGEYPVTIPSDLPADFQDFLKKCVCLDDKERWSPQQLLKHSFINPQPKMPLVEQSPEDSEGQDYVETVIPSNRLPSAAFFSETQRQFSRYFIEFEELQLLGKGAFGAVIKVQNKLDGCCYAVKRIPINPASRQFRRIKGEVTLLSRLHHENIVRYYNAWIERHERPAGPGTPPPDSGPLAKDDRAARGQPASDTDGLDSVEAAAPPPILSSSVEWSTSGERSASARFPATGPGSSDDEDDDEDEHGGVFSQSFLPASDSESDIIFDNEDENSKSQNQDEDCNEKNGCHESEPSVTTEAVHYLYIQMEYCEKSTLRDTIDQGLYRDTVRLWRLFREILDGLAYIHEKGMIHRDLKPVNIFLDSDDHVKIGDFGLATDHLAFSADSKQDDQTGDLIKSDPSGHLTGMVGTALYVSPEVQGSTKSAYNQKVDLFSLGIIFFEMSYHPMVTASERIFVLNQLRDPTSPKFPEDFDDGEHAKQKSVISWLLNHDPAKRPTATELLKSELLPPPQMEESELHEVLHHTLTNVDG", "design": "gene EIF2AK4"}
{"smiles": "CCOc1cc2ncc(C#N)c(Nc3ccc(OCc4ccccn4)c(Cl)c3)c2cc1NC(=O)/C=C/CN(C)C", "note": "[Neratinib]", "values": [{"measurement": "in vitro kinase assay with ATP titration, 1 μM compound; raised apparent ATP aff", "result": "~ 1 μM"}]}
